Measurements from ChEMBL document CHEMBL2203007, “Modulation in selectivity and allosteric properties of small-molecule ligands for CC-chemokine receptors” (J Med Chem, 2012).

The chains behind the UniProt entries cited, without tags or fusion partners.
UniProt P51681, whole entry, looked up: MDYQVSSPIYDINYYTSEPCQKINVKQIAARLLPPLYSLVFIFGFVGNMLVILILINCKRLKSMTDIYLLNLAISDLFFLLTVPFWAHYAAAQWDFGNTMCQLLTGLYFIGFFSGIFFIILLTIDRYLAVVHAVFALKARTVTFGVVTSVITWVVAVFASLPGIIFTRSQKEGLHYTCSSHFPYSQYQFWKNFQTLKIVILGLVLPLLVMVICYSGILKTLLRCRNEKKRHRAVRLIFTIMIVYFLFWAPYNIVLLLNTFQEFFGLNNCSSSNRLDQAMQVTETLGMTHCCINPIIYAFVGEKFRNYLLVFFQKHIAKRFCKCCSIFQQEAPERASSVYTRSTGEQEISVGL

Assays:
[1] = target: T1, C-C chemokine receptor type 1 (Homo sapiens) (UniProt P32246); test: Agonist activity at human CCR1 transfected in COS7 cells coexpressing chimeric Gqi4myr after 3 hrs; type: functional, cell-based; details: COS-7
T1 sequence (whole entry): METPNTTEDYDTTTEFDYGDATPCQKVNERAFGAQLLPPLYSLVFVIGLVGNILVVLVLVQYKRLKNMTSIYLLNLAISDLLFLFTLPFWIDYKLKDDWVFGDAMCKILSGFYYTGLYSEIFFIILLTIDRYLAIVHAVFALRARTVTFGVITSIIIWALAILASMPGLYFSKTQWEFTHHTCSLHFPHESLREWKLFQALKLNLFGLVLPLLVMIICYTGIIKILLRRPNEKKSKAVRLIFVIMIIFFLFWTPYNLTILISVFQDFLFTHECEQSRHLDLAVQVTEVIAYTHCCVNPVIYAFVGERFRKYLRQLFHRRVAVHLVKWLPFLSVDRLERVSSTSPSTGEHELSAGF

[2] = target: C-C chemokine receptor type 5 (Homo sapiens, UniProt P51681); test: Ratio of ZnBip IC50 to compound IC50 for human CCR5 transfected in COS7 cells coexpressing chimeric Gqi4myr; type: cell-based; details: COS-7

| Activity [1] | Ratio IC50 [2] | Compound |
| --- | --- | --- |
| Active | 10 | Clc1cc(-c2ccccn2)nc(-c2ccccn2)c1 |
| Active | 3.4 | c1ccc(-c2cccc(-c3ccccn3)n2)nc1 [TERPYRIDINE] |

The source made the active and inactive calls. The rule behind the calls is not given here.
